Key:
Test in all cases: cell-based or functional assay
[1] = target: chymotrypsin (Sigma-Aldrich)
elastase (Sigma-Aldrich) = target: elastase (Sigma-Aldrich)
trypsin (Sigma-Aldrich) = target: trypsin (Sigma-Aldrich)
[2] = target: kallikrein (Sigma-Aldrich)
urokinase = target: urokinase

Substance: aprotinin (Sigma-Aldrich) (from UniProt P00974 36-93)
- Survival of HB64 (1 mg/mL) with chymotrypsin 25 µg/mL and aprotinin 0.02 mg/mL, LC/MS, Expt. 35 [1]: < 24 h
- Survival of HB64 (1 mg/mL) with elastase 25 µg/mL and aprotinin 0.02 mg/mL, LC/MS, Expt. 23 (elastase (Sigma-Aldrich)): < 1 h
- Survival of HB64 (1 mg/mL) with trypsin 25 µg/mL and aprotinin 0.02 mg/mL, LC/MS, Expt. 5 (trypsin (Sigma-Aldrich)): > 24 h
- Survival of HB168 (1 mg/mL) with trypsin 25 µg/mL and aprotinin 0.02 mg/mL, LC/MS, Expt. 7 (trypsin (Sigma-Aldrich)): > 24 h
- Survival of HB1345 (1 mg/mL) with trypsin 25 µg/mL and aprotinin 0.02 mg/mL, LC/MS, Expt. 9 (trypsin (Sigma-Aldrich)): > 24 h
- Survival of LL-37 (1 mg/mL) with kallikrein 22 µg/mL and aprotinin 0.02 mg/mL, LC/MS, Expt. 48 [2]: < 24 h
- Survival of LL-37 (1 mg/mL) with urokinase 22 µg/mL and aprotinin 0.02 mg/mL, LC/MS, Expt. 52 (urokinase): > 24 h

From patent publication US20090142280A1
